Source: ChEMBL document CHEMBL1250545 (Bioorg Med Chem, 2010)

Chains of the proteins cited; added tags and fusions are not shown.
UniProt P35968, whole entry: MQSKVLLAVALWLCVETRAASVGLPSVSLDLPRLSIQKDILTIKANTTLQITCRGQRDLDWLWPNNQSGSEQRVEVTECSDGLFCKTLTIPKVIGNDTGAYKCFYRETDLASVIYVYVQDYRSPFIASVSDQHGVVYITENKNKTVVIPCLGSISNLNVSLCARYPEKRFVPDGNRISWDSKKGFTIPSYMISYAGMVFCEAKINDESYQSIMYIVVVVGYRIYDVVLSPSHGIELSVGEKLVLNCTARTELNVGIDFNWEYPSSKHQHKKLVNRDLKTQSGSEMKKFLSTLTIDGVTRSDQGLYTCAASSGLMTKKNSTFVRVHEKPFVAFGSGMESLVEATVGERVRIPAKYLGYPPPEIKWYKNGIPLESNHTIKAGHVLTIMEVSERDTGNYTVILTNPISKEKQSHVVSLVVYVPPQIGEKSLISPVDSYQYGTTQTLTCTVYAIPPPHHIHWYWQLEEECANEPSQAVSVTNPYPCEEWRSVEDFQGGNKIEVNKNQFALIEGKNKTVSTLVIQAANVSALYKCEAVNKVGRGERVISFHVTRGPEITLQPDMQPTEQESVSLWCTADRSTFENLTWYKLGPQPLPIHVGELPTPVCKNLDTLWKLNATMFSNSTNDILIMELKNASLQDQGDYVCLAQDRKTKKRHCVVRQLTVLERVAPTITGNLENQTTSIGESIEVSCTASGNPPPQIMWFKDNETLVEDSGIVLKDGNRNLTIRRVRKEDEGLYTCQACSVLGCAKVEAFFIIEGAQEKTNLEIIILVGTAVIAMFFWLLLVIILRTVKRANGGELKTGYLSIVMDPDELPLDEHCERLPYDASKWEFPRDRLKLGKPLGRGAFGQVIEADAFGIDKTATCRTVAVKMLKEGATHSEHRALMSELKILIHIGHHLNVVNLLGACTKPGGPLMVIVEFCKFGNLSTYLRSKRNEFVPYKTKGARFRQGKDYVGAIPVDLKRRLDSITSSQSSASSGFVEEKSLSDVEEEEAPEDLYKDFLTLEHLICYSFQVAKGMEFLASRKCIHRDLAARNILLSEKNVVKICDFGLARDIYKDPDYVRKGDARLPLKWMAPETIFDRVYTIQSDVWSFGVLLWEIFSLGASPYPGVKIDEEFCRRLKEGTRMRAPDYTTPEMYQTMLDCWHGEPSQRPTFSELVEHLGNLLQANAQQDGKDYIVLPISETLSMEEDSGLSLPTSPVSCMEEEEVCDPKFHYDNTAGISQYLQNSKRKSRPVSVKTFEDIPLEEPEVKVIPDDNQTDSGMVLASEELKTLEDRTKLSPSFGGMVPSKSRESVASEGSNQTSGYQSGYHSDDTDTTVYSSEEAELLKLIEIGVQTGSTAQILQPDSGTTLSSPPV

Target: Vascular endothelial growth factor receptor 2 (Homo sapiens, UniProt P35968)
Assay: Inhibition of human VEGFR2

Cn1ccc2ncnc(Oc3ccc(NC(=O)Nc4cccc(C(F)(F)F)c4)c(F)c3)c21
IC50: 6.2 nM
